# Measured values: PubChem BioAssay AID720648 (The Scripps Research Institute Molecular Screening Center, 2013)
# By UniProt entry, the sequences of proteins in these tests, tags left out. Residues count along the entry.
# UniProt P78536, 215-824 limits assumed: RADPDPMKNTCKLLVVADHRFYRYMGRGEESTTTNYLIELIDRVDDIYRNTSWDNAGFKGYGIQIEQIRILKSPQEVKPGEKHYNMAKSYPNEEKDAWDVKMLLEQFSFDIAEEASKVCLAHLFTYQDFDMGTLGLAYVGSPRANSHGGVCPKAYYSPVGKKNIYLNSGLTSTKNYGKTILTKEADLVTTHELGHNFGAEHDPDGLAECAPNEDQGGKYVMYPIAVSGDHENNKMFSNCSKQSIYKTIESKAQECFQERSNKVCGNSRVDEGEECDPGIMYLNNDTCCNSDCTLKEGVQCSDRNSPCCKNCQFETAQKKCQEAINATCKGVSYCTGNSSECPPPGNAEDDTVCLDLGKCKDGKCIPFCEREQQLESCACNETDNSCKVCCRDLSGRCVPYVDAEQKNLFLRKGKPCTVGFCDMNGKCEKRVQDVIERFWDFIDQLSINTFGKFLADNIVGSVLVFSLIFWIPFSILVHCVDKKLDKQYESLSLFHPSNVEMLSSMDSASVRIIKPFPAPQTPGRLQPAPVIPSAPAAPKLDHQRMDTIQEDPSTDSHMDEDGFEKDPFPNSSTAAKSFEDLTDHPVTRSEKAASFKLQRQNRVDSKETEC
# Only a part is listed here, and it is no random draw. Some salts and complexes are drawn in separate pieces, as the source files them; their charges need not balance. Active and inactive are the calls of the source.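 How the source made its calls: active means inhibition above the mean of compounds lying between control limits plus 3 SD, set per campaign (cut at about 8.5% in these data); inactive means the rest.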
# Target: Disintegrin and metalloproteinase domain-containing protein 17 (Homo sapiens) (UniProt P78536)
# Assay: ADAM17 inhibitors, primary screen, biochemical, QFRET (AID 720648);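 further: 0% = DMSO-only wells as the low control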
# Details: recombinant ADAM17, EDANS/DABCYL FRET peptide cleavage; at 6.95 µM; active compounds read high
row,SMILES,inhibition
1,CP(=S)(Nn1cnnc1)Oc1ccccc1 (centres undefined),inactive: -0.47%
2,CP(=O)(Nc1ccccc1Br)Oc1ccccc1 (centres undefined),inactive: -3.26%
3,COc1ccccc1OP(C)(=O)Nc1ccccc1 (centres undefined),inactive: -5.17%
4,O=[N+]([O-])c1cc([N+](=O)[O-])c(O)c([N+](=O)[O-])c1.c1ccc(Oc2ccncc2)cc1,inactive: 5.19%
5,CCOC(=O)c1ccc(NP(C)(=O)Oc2ccc(OC)cc2)cc1 (centres undefined),inactive: -0.57%
6,CCOP(C)(=S)SCC(=O)NC(C)C(=O)O (centres undefined),inactive: -0.4%
7,CP(=O)(Nc1ccccn1)Oc1ccc(Cl)cc1 (centres undefined),inactive: -4.3%
8,CP(=O)(Nc1ccc(SC(F)(F)F)cc1)Oc1ccc(Cl)cc1 (centres undefined),inactive: -0.19%
9,Cc1cccc(C)c1OP(C)(=O)Nc1ccc(SC(F)(F)F)cc1 (centres undefined),inactive: -24.5%
10,CP(=O)(Oc1ccccc1)OC(c1ccccc1)C(F)(F)F (centres undefined),inactive: -0.92%
11,CCc1ccc(OP(C)(=O)N2CCN(c3ccc([N+](=O)[O-])cc3)CC2)cc1 (centres undefined),inactive: 0.33%
12,CP(=O)(NC(=O)Nc1ccccc1)Oc1ccccc1 (centres undefined),inactive: -2.34%
13,Cc1cc(C)cc(OP(C)(=O)Nc2ccc(SC(F)(F)F)cc2)c1 (centres undefined),inactive: -2.39%
14,COc1ccccc1-c1ccccn1.O=[N+]([O-])c1cc([N+](=O)[O-])c(O)c([N+](=O)[O-])c1,inactive: -2.24%
15,CCN(CC)CCCOC(=O)C(O)(c1ccccc1)c1ccccc1,inactive: -5.02%
16,COc1ccccc1OP(C)(=O)Nc1ccc(C)cc1 (centres undefined),inactive: 3.02%
17,Cc1ccc(NP(C)(=O)Oc2ccccc2)c(C)c1 (centres undefined),inactive: -3.45%
18,CCOC(=O)c1ccc(NP(C)(=O)Oc2ccccc2)cc1 (centres undefined),inactive: -5.62%
19,Cc1cc(C)cc(OP(C)(N)=O)c1 (centres undefined),inactive: 3.27%
20,COc1ccccc1OP(C)(=O)Nc1cc(Cl)ccc1C (centres undefined),inactive: 0.22%
21,COc1ccc(OP(C)(=O)Nc2cccc(F)c2)cc1 (centres undefined),inactive: -5.38%
22,O=[N+]([O-])c1cc([N+](=O)[O-])c(Nc2cccnc2)c([N+](=O)[O-])c1,inactive: 1.46%
23,O=[N+]([O-])c1ccc2c(c1)C=Nc1ccccc1O2,inactive: 1.24%
24,CC(C)(C)c1ccc(OP(C)(=O)Nc2ccc(SC(F)(F)F)cc2)cc1 (centres undefined),inactive: -0.43%
25,Cc1cccc(C)c1OP(C)(N)=O (centres undefined),inactive: -0.65%

row,SMILES,inhibition
1,CC1=NCCc2c1[nH]c1ccccc21.O=[N+]([O-])c1cc([N+](=O)[O-])c(O)c([N+](=O)[O-])c1,inactive: -11.8%
2,O=C(O)c1cccc(Nc2c([N+](=O)[O-])cc([N+](=O)[O-])cc2[N+](=O)[O-])c1,inactive: 1.13%
3,Cc1ccc(C)c(NP(C)(=O)Oc2ccccc2)c1 (centres undefined),inactive: -1.05%
4,CP(=O)(Nc1cccc(Br)c1)Oc1ccccc1 (centres undefined),inactive: 2.32%
5,Cc1cc(C)cc(OP(C)(=O)Nc2ccccn2)c1 (centres undefined),inactive: -2.85%
6,COc1ccccc1OP(C)(=O)Nc1cccc(Br)c1 (centres undefined),inactive: -0.56%
7,CCOC(=O)c1ccc(NP(C)(=O)Oc2cc(C)cc(C)c2)cc1 (centres undefined),inactive: 3.63%
8,Cc1cc(C)cc(OP(C)(=O)Nc2ccc(C)cc2C)c1 (centres undefined),inactive: 2.57%
9,O=[N+]([O-])c1cc([N+](=O)[O-])c(-c2cnn(-c3ccccc3)c2)c([N+](=O)[O-])c1,inactive: 1.46%
10,Cc1nc2ccc3ccccc3c2s1.O=[N+]([O-])c1cc([N+](=O)[O-])c(O)c([N+](=O)[O-])c1,active: 9.22%
11,O=[N+]([O-])c1cc([N+](=O)[O-])c(-n2nnc3ccccc32)c([N+](=O)[O-])c1,inactive: -0.13%
12,CN(Cc1cccnc1)C(=O)COc1ccc(Cl)c(Cl)c1.O=[N+]([O-])c1cc([N+](=O)[O-])c(O)c([N+](=O)[O-])c1,inactive: -2.95%
13,CN1CCCCC1COC(=O)C1(O)c2ccccc2CCc2ccccc21 (centres undefined),inactive: -1.5%
14,COc1ccccc1OP(C)(=O)Nc1c(C)cccc1C (centres undefined),inactive: -2.17%
15,COc1ccc(-c2ccccn2)cc1.O=[N+]([O-])c1cc([N+](=O)[O-])c(O)c([N+](=O)[O-])c1,inactive: 1.77%
16,CP(=O)(Nc1ccc(SC(F)(F)F)cc1)Oc1ccccc1 (centres undefined),inactive: 2.69%
17,CCCOc1ccc(NP(C)(=O)Oc2ccc(Cl)cc2)cc1 (centres undefined),inactive: -1.62%
18,O=[N+]([O-])c1cc([N+](=O)[O-])c(Nc2nnnn2CCO)c([N+](=O)[O-])c1,inactive: 3.66%
19,CCOC(=O)C(CC)C1=NC(C)(C)Cc2ccccc21.O=[N+]([O-])c1cc([N+](=O)[O-])c(O)c([N+](=O)[O-])c1 (centres undefined),inactive: -0.85%
20,O=[N+]([O-])c1ccc(OP2(=O)COCCO2)cc1 (centres undefined),inactive: 0.38%
21,Cc1cc(-c2cccc3ccccc23)c(C)cn1.O=[N+]([O-])c1cc([N+](=O)[O-])c(O)c([N+](=O)[O-])c1,inactive: 1.66%
22,O=[N+]([O-])c1cc([N+](=O)[O-])c(NCC2CCS(=O)(=O)C2)c([N+](=O)[O-])c1 (centres undefined),inactive: -2.69%
23,Cc1c(C(c2ccc3c(c2)OCO3)c2c(C)n(C)n(-c3ccccc3)c2=O)c(=O)n(-c2ccccc2)n1C.O=[N+]([O-])c1cc([N+](=O)[O-])c(O)c([N+](=O)[O-])c1,inactive: -7.9%
24,COc1ccc(OP(C)(=O)Nc2cccc(Br)c2)cc1 (centres undefined),inactive: 2.68%
25,CN(C)CCOC(=O)C(O)(c1ccccc1)C1CCCCC1 (centres undefined),inactive: 3.28%

row,SMILES,inhibition
1,COc1ccc(NP(C)(=O)Oc2ccccc2OC)cc1 (centres undefined),inactive: 1.41%
2,CP(=O)(Nc1ccc2c(c1)OCCO2)Oc1ccccc1 (centres undefined),inactive: -3.25%
3,Cc1ccccc1NP(C)(=O)Nc1ccccc1C,inactive: 0.58%
4,O=[N+]([O-])c1cc([N+](=O)[O-])c(C(F)(F)F)c([N+](=O)[O-])c1O,inactive: 1.64%
5,CP(=O)(Nc1ccc(SC(F)(F)F)cc1)Oc1ccc(F)cc1 (centres undefined),inactive: 6.32%
6,CCOP(C)(=S)SCC(=O)NC(C)(CC)C(=O)O (centres undefined),inactive: -3.63%
7,CCOP(=O)(CC)OCC,inactive: -6.28%
8,O=C(OC1CN2CCC1CC2)c1ccc([N+](=O)[O-])cc1 (centres undefined),inactive: 1.58%
9,O=C(OCCN1CCN(CCOCc2ccccc2)CC1)C(O)(c1ccccc1)c1ccccc1,inactive: 2.09%
10,COc1ccc2c(c1O)-c1c(O)c(OC)cc3c1[C@H](C2)[N+](C)(C)CC3.O=[N+]([O-])c1cc([N+](=O)[O-])c([O-])c([N+](=O)[O-])c1[O-],inactive: -154%
11,O=[N+]([O-])c1cc([N+](=O)[O-])c(Nc2ccc(Cl)cc2)c([N+](=O)[O-])c1,inactive: 6.69%
12,CP(=O)(Nc1ccccc1F)Oc1ccccc1 (centres undefined),inactive: -2.98%
13,CC(C)c1ccc(OP(C)(=O)Nc2ccc(SC(F)(F)F)cc2)cc1 (centres undefined),inactive: 5.46%
14,Cc1c([N+](=O)[O-])cc([N+](=O)[O-])c(Br)c1[N+](=O)[O-],inactive: 4.89%
15,CCN(CC)CCCOC(=O)C(O)(c1ccccc1)C1CCCCC1 (centres undefined),inactive: 0.9%
16,CP(=O)(Nc1ccccc1)Oc1ccc(F)cc1 (centres undefined),inactive: -2.89%
17,O=[N+]([O-])c1cc([N+](=O)[O-])c(OC2CCCCC2O)c([N+](=O)[O-])c1 (centres undefined),inactive: -4.24%
18,CCCCCOc1ccc(NP(C)(=O)Oc2ccc(Cl)cc2Cl)cc1 (centres undefined),inactive: 1.89%
19,CCN(CC)CCCNc1ccccc1[N+](=O)[O-].O=[N+]([O-])c1cc([N+](=O)[O-])c(O)c([N+](=O)[O-])c1,inactive: 2.24%
20,CCOC(=O)c1ccc(NP(C)(=O)Oc2ccc(F)cc2)cc1 (centres undefined),inactive: -3.45%
21,COc1ccc(OP(C)(=O)Nc2ccc(SC(F)(F)F)cc2)cc1 (centres undefined),inactive: 4.83%
22,CP(=O)(OCCOc1ccccc1)OCCOc1ccccc1,inactive: 1.61%
23,CP(=O)(Nc1ccc(Cl)cc1Cl)Oc1ccccc1 (centres undefined),inactive: -8.1%
24,CCCCCCCCCCCCCCCC1C[N+](C)(C)CCOP(C)(=O)O1 (centres undefined),inactive: 0.47%
25,O=C1C(O)=C([N+](=O)[O-])C(=O)C(O)=C1[N+](=O)[O-],inactive: -4.62%

row,SMILES,inhibition
1,Cc1cc(C)cc(OP(C)(=O)Nc2cccc(C(F)(F)F)c2)c1 (centres undefined),inactive: 0.5%
2,COc1ccccc1OP(C)(=O)Nc1ccc(C)c(C)c1 (centres undefined),inactive: -7.16%
3,COc1ccc(OP(C)(=O)Nc2ccccc2Br)cc1 (centres undefined),inactive: -3.32%
4,O=[N+]([O-])c1cc([N+](=O)[O-])c(Nc2ccccn2)c([N+](=O)[O-])c1,inactive: 1.67%
5,Cc1c(NP(C)(=O)Oc2ccc(C(C)C)cc2)c(=O)n(-c2ccccc2)n1C (centres undefined),inactive: -2.52%
6,CP(=O)(Nc1ccccn1)Oc1ccccc1 (centres undefined),inactive: -2.49%
7,COc1ccccc1OP(C)(=O)Nc1ccc(C)cc1C (centres undefined),inactive: -8.31%
8,CCc1ccc(OP(C)(=O)O)cc1,inactive: -0.3%
9,COc1ccccc1OP(C)(=O)Nc1ccc(Br)cc1 (centres undefined),inactive: -3.97%
10,COc1ccc(OP(C)(=O)Nc2ccccn2)cc1 (centres undefined),inactive: -1.3%
11,CN(C)CCOC(=O)C(O)(c1ccccc1)C1CCCC1 (centres undefined),inactive: 0.61%
12,CC(C)(C)c1ccc(OP(C)(=O)O)cc1,inactive: -1.11%
13,COc1ccccc1OP(C)(=O)Nc1ccccc1Br (centres undefined),inactive: 0.92%
14,CP(=O)(Nc1ccc(Cl)cc1)Oc1ccc(F)cc1 (centres undefined),inactive: -2.73%
15,CN(C)C(=O)c1c([N+](=O)[O-])cc([N+](=O)[O-])cc1[N+](=O)[O-],inactive: -0.36%
16,CCN(CC)CC(O)COC(=O)C(O)(c1ccccc1)C1CCCCC1 (centres undefined),inactive: -1.76%
17,COc1ccc(OP(C)(=O)Nc2ccc(Br)cc2)cc1 (centres undefined),inactive: 0.29%
18,COc1ccccc1OP(C)(=O)Nc1c(C)n(C)n(-c2ccccc2)c1=O (centres undefined),inactive: -4.46%
19,O=C(OCCCN1CCCC1)C(O)(c1ccccc1)C1CCCCC1 (centres undefined),inactive: -5.28%
20,CP(=O)(Oc1ccccc1)N1CCOC1=O (centres undefined),inactive: -0.17%
21,CCc1ccc(OP(C)(=O)Nc2cccnc2)cc1 (centres undefined),inactive: -6.01%
22,Nc1ccc2c(ccc3cccnc32)n1.O=[N+]([O-])c1cc([N+](=O)[O-])c(O)c([N+](=O)[O-])c1,inactive: -61.6%
23,CCOC(=O)c1ccc(NP(C)(=O)Oc2ccc(Cl)cc2)cc1 (centres undefined),inactive: 7.37%
24,CP(=O)(OC12CC3CC(CC(C3)C1)C2)OC12CC3CC(CC(C3)C1)C2,inactive: -2.57%
